A549 tox – kills or reduces viability of A549 cells in Nrf2 counter-screen | A549 ARE-Fluc cells, CellTiter-Fluor viability, 18-24 h | Potency, µM (titrated, usually from 46 µM), inactives show at the highest dose activity change, negative = cytotoxicity, most hits filed as inhibitors | hit rate 0.16% among 390,000 | AID 504648; further: potency means the concentration at half of the fitted maximal effect; on the % scale 0 is the no-effect control and ±100 the full control effect
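Cytotoxicity counterscreen: CellTiter-Fluor fluorescence was measured in A549 ARE_Fluc cells after 18-24 h of compound exposure in a concentration series. The subsequent BugLite luminescent read reports ARE-luciferase activity.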
Nrf2 ARE act – activators of Nrf2 (ARE) signaling. AREc32 ARE-luciferase reporter (MCF7-derived line), luminescence, 24 h. hit rate 0.31% among 410,000. Potency, µM (series often up to 46.1 µM), without a hit: at the highest dose activation, hits mostly activators; further: potency means the concentration at half of the fitted maximal effect; % of control where 0% means no effect; nearly all actives have a fitted effect of over 65% in size
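AREc32 cells carrying an ARE-driven firefly luciferase, 1000 cells/well in OPTI-MEM with 5% FBS, dosed after overnight attachment and incubated 24 hr at 37 deg C. Steady-Glo luminescence read after 30 min at RT.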
GRP78 ERSR act – inducers of ER stress response in human glioma cells; U87-MG GRP78 promoter luciferase reporter, 16 h; Potency, µM, inactives show at the highest dose activation, most hits filed as activators; hit rate 0.02% among 420,000; further: potency means the concentration at half of the fitted maximal effect; series mostly up to about 76 µM; % of control where 0% means no effect; nearly all actives have a fitted effect of over 35% in size
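Stably transfected U87-MG glioma cells carrying a GRP78-based luciferase sensor; 16 h compound incubation. Luminescence end-point read 10 min after Bright-Glo addition at room temperature.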
miR-21 reporter – miR-21 reporter, rising signal | AID 2288 | HeLa miR-21 FLuc reporter, luciferase, 48 h | 340,000 tested, under 10 active | Potency, µM (doses to about 38.3 µM), for inactives: at the top dose reporter change, positive = more light; active = well fitted rising curve with a large enough effect; inconclusive = small, poorly fitted or top-dose-only effect; inactive = no such curve, though single readings can be large or run the other way;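 note: % of control where 0% means no effect; miR-21 action dims this reporter so a rising signal means less miR-21 action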
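Compounds were titrated across several concentrations (up to approximately 40 uM) and incubated 48 hours with HeLa miR-21-FLuc reporter cells (miR-21 target sequence downstream of FLuc, endogenous miR-21). Readout was firefly luciferase luminescence after lytic detection reagent.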
Nrf2 block – inhibitors of Nrf2 signaling | hit rate 2.1% among 360,000 | Potency, µM (doses to about 46 µM), for the others: top-dose activity change, negative = inhibition, usual class: inhibitors | A549 ARE-Fluc reporter, luciferase luminescence, 18-24 h | AID 504444; further: potency means the concentration at half of the fitted maximal effect; on the % scale 0 is the no-effect control and ±100 the full control effect; nearly all actives have a fitted effect of over 60% in size
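A549 ARE_Fluc cells, 5000/well, 5% FBS OPTI-MEM; compounds in dose-response, 18-24 h at 37 °C/5% CO2; CellTiter-Fluor viability read (Ex 405/Em 525), then BugLite luciferase luminescence = Nrf2 activity.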
TSG101-PTAP inh – blocks PTAP/TSG101 interaction to inhibit HIV-1 budding; Q99816; Fluorescence polarization, FITC-PTAP peptide / Tsg101 binding; Potency, µM (doses to about 115 µM), without a hit: at the top dose activity change, negative = inhibition, most hits filed as inhibitors; 340,000 tested, under 10 active; AID 493005; active means well fitted inhibition curve with a large enough effect in the main read-out, with a control signal flat, not every such curve was filed as active; inconclusive means small, poorly fitted or top-dose-only effect, or effect the other way, or a change in a side signal; inactive means no such curve, though single readings can be large or run the other way; further: potency means the concentration at half of the fitted maximal effect; % of control where 0% means no effect
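FP read-out: FITC-PTAP peptide, 50 nM final, binding Tsg101 binding domain, 10 uM final; 20 min, r.t.; 10 mM HEPES pH 7.5, 0.15 M NaCl, 0.01% Tween 20, 3 mM EDTA, 0.1 mM TCEP.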
Numbers without * were called inactive; u = inconclusive; x = not tested or not shown; [ ] = another dose, or the depositor's remark. Compounds with a hit are over-represented: about 2.1% of the library has one in this group of screens. Unless noted, the call rests on the fitted dose curve; in most records, active means well fitted curve in the direction sought with a large enough effect; inconclusive means small, poorly fitted or top-dose-only effect, or another doubt; inactive means no such curve, though single readings can be large; an effect the other way counts as inactive or inconclusive.

SMILES | A549 tox | Nrf2 ARE act | GRP78 ERSR act | miR-21 reporter | Nrf2 block | TSG101-PTAP inh
CCOC(=O)COc1ccc2c(C)c(CCN(CC)CC)c(=O)oc2c1 | x | x | -4.3% | x | x | x
Oc1ccccc1-c1nc(/C=C/c2ccccc2)nn1-c1ccccc1 | -0.5% | 8.2% | 1.5% | -26.6% | -11.7% | -1.4%
Oc1ccc(/C=C/c2nc(-c3ccccc3O)n(-c3ccccc3)n2)cc1 | u | 4.1% | 2.1% | 1.3% | 7.31µM* | -5.7%
Nc1ncc(Br)cc1S(=O)(=O)NCCC(=O)N1CCN(c2ncccn2)CC1 | -16.0% | -0.1% | -3.1% | 5.5% | 18.4µM* | -2.5%
CC(=O)C1=C(C)OC(N)=C(C#N)C1c1cc([N+](=O)[O-])ccc1Cl (stereo not given) | 3.4% | 12.6µM* | -3.7% | 17.4% | 0.7% | 2.0%
CCCCOC(=O)CSC1=C(C#N)C(c2ccccc2OCC)C(C#N)C(=O)N1 (stereo not given) | u | 0.3% | -2.0% | -11.7% | 10.3µM* | -5.3%
CCCOC(=O)CSC1=C(C#N)C(c2ccccc2OCC)C(C#N)C(=O)N1 (stereo not given) | -17.2% | -0.1% | -2.9% | -12.2% | -24.2% | -6.9%
COc1ccccc1NC(=O)CSc1nnc2c3ccccc3n(C(C)C)c2n1 | u | 0.4% | -1.9% | 28.7% | 18.4µM* | x
CCOC(=O)c1ccc(N2C(=O)c3n[nH]c(-c4ccco4)c3C2c2cccc(F)c2)cc1 (stereo not given) | u | -3.2% | -6.5% | u | 20.6µM* | x
CCOC(=O)c1ccc(N2C(=O)c3n[nH]c(-c4ccco4)c3C2c2ccc(OCC)cc2)cc1 (stereo not given) | u | -4.3% | u | u | 18.4µM* | x
Cc1c(C)c(C)c(/C=C/c2ccnc3ccccc23)c(C)c1C | x | x | 2.5% | x | x | x
CSc1nsc(SC)c1C(=O)NC(=O)Nc1cccnc1 | -10.5% | 1.8% | -1.6% | -2.6% | -27.3% | -2.4%
CSc1nsc(SC)c1C(=O)Nc1ccc(C(C)(C)C)cc1 | 5.6% | 11.2µM* | 3.3% | -21.8% | u | 0.4%
NC(=O)CC(NC(=O)c1ccccc1)c1ccc(N2CCC(Cc3ccccc3)CC2)c([N+](=O)[O-])c1 (stereo not given) | u | -0.3% | -3.0% | 24.0% | 10.3µM* | -1.8%
COc1ccc(CN2CCC3(CCC(CNC(=O)c4ccco4)O3)CC2)c(OC)c1C (stereo not given) | x | x | -3.6% | x | x | x
CN(c1cccc(NC(=O)c2ccc(Cl)c(S(=O)(=O)Nc3ccccc3)c2)c1)S(C)(=O)=O | -21.1% | 3.4% | 5.0% | 14.9% | 20.6µM* | -0.3%
Cc1ccc(SCCNC(=O)c2ccc(C)c(S(=O)(=O)Nc3ccccc3C)c2)cc1 | -16.6% | 2.3% | -2.7% | 24.6% | 13µM* | -4.3%
Cc1ccccc1NS(=O)(=O)c1cc(C(=O)Nc2cccc(N(C)S(C)(=O)=O)c2)ccc1C | u | 2.7% | -4.1% | 16.4% | 18.4µM* | -7.9%
Cc1ccc(C(=O)Nc2ccccc2)cc1S(=O)(=O)Nc1ccccc1 | -0.6% | 5.6% | -2.2% | 6.8% | u | x
CN(CC(O)CON=C1c2ccccc2-c2ccccc21)S(=O)(=O)c1ccc(Br)cc1 (stereo not given) | u | 2.0% | -5.0% | -11.4% | 20.6µM* | -1.1%
CCN(CC(O)CON=C1c2ccccc2-c2ccccc21)S(=O)(=O)c1ccc(Cl)cc1 (stereo not given) | -16.3% | -0.7% | -6.6% | 1.7% | u | -3.4%
CCN(CC(O)CON=C1c2ccccc2-c2ccccc21)S(=O)(=O)c1ccc(C)cc1 (stereo not given) | u | -0.3% | -7.6% | 7.2% | 20.6µM* | -1.6%
COc1cccc(-c2nc3cc4c(cc3cc2CN(C(=O)c2cc(C)nn2C)C2CC2)CCC4)c1OC | x | x | -3.6% | x | x | x
OC1(c2cccnc2)CCN(Cc2ccc3c(c2)CN(Cc2cc4ccccc4s2)CCO3)CC1 | x | x | -3.3% | x | x | x
CCc1cc(C(=O)NCc2c(C)ncc3c2CCN(C(=O)C2=CCCC2)C3)no1 | x | x | -4.4% | x | x | x

Quoted at random: 4 entries already listed
SMILES | A549 tox | Nrf2 ARE act | GRP78 ERSR act | miR-21 reporter | Nrf2 block | TSG101-PTAP inh
Oc1ccccc1-c1nc(/C=C/c2ccccc2)nn1-c1ccccc1 | -0.5% | 8.2% | 1.5% | -26.6% | -11.7% | -1.4%
Cc1ccc(SCCNC(=O)c2ccc(C)c(S(=O)(=O)Nc3ccccc3C)c2)cc1 | -16.6% | 2.3% | -2.7% | 24.6% | 13µM* | -4.3%
Cc1ccc(C(=O)Nc2ccccc2)cc1S(=O)(=O)Nc1ccccc1 | -0.6% | 5.6% | -2.2% | 6.8% | u | x
OC1(c2cccnc2)CCN(Cc2ccc3c(c2)CN(Cc2cc4ccccc4s2)CCO3)CC1 | x | x | -3.3% | x | x | x

Later entries
SMILES | A549 tox | Nrf2 ARE act | GRP78 ERSR act | miR-21 reporter | Nrf2 block | TSG101-PTAP inh
COc1ccc(CN2CC[C@H]3C=CC[C@@H](C(=O)Nc4ccccc4)[C@H]3C2=O)cc1OC | x | x | -4.3% | x | x | x
CN(C)C=Nc1ncc2c3ccccc3n(CCN(C)C)c2c1C#N | -26.1% | 0.3% | -5.3% | u | u | -2.4%
CCN(CC)CCn1c2ccccc2c2cnc(N)c(C#N)c21 | u | 12.3% | 2.9% | 23.7% | 5.17µM* | -1.1%
COc1ccc(-c2nn(-c3ccccc3)cc2C(=O)NC(=S)NNC(=O)c2ccncc2)cc1 | -14.5% | -0.6% | -1.8% | 23.0% | 20.6µM* | -5.5%
COc1ccc(NC(=O)c2cn(-c3ccccc3)nc2-c2ccncc2)cc1 | -2.0% | 2.5%[9.22 µM] | -3.0% | 2.4% | 11.6% | 4.8%
Cc1ccccc1NC(=O)/C(C#N)=C\c1ccsc1 | 0.5% | 8.91µM* | 3.8% | -19.0% | u | -2.0%
Cc1ccc(NC(=O)/C(C#N)=C/c2ccsc2)c(C)c1 | 1.2% | u | -0.2% | -50.2% | -2.1% | -4.8%
COCCN1CCN(C(=O)c2cnn(-c3nccc(-c4ccccc4F)n3)c2-c2ccco2)CC1 | x | x | 0.9% | x | x | x
CCOc1ccc(NS(=O)(=O)c2ccc(C(=O)N3CCN(c4ncccn4)CC3)cc2)cc1 | -21.3% | 2.3% | -3.3% | 28.4% | 16.4µM* | -7.6%
CCOc1ccc(NS(=O)(=O)c2ccc(C(=O)N(C)Cc3cccc(OC)c3OC)cc2)cc1 | -7.4% | 2.7% | -3.5% | 15.3% | 14.6µM* | -3.5%
CCOC(=O)N1CCN(C(=O)c2ccc(NS(=O)(=O)c3ccc(F)cc3)cc2)CC1 | -2.2% | -1.0% | -3.2% | -3.5% | 16.4µM* | -0.2%
Cc1cc2c(s1)c1cnn(Cc3c(F)ccc(C)c3Cl)c(=O)c1n2C | -1.6% | x | x | x | 13.4% | x
COc1cc(C2C=C(C34CC5CC(CC(C5)C3)C4)NC(=S)N2)cc(OC)c1OC (stereo not given) | -13.0% | 0.4% | -2.2% | -3.2% | 23.1µM* | 1.0%
COc1ccc(-c2ccnc3nc(-n4cccc4)nn23)cc1 | -9.5% | 0.6% | -6.6% | -19.1% | u | x
c1coc(-c2ccnc3nc(-n4cccc4)nn23)c1 | -1.3% | 7.94µM* | -1.1% | -0.3% | 8.2% | -0.4%
Cc1cc2c(c(-c3cnccn3)c1)OC(CNC(=O)c1cc(Cl)ccc1F)C2 (stereo not given) | x | x | -2.0% | x | x | x
C=C(Br)COC(c1ccco1)[C@H](Cc1ccccc1)NC(=O)OC(C)(C)C (stereo not given in full) | x | x | -0.9% | x | x | x

Screens (PubChem)
